Earlier results as cited in patent publication US20140288899A1, “C[…] OF BINDING FREE ENERGY, C[…] OF BINDING FREE ENERGY, PROGRAM, SCREENING METHOD OF COMPOUND” (FUJITSU LIMITED, priority 2013, published 2014).

Chains of the proteins cited; added tags and fusions are not shown.
UniProt P62942, whole entry: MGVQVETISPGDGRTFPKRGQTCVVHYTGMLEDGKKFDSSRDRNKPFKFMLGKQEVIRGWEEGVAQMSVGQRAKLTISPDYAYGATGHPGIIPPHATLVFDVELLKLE

What was measured:
[1] = biological target: T1, FK506 BINDING PROTEIN (Homo sapiens, UniProt P62942); settings: experimental value disclosed in Holt et al., J. Am. Chem. Soc. 1993, 115, 9925-9938
[2] = biological target: T1, FK506 BINDING PROTEIN; settings: calculation value of Wang et al., Biophysical Journal Vol. 91, 2798-2814; restriction with a spring

For `C=CC[C@@H]1/C=C(\C)C[C@H](C)C[C@H](OC)[C@H]2O[C@@](O)(C(=O)C(=O)N3CCCC[C@H]3C(=O)O[C@H](/C(C)=C/[C@@H]3CC[C@@H](O)[C@H](OC)C3)[C@H](C)[C@@H](O)CC1=O)[C@H](C)C[C@@H]2OC` [1fkj, 8-DEETHYL-8-[BUT-3-ENYL]-ASCOMYCIN], the “binding free energy, experimental value” [1] is given as -12.7 kcal/mol and the “binding free energy, calculation result of Comparative Example” value [2] is given as -10.1 kcal/mol.
